The text below walks through data of paper PMC8232238 (Cells, 2021).

Chains of the proteins cited; added tags and fusions are not shown. Lines headed by an entry give the natural chain unless they say otherwise; changes in a name come on top.
UniProt O15379: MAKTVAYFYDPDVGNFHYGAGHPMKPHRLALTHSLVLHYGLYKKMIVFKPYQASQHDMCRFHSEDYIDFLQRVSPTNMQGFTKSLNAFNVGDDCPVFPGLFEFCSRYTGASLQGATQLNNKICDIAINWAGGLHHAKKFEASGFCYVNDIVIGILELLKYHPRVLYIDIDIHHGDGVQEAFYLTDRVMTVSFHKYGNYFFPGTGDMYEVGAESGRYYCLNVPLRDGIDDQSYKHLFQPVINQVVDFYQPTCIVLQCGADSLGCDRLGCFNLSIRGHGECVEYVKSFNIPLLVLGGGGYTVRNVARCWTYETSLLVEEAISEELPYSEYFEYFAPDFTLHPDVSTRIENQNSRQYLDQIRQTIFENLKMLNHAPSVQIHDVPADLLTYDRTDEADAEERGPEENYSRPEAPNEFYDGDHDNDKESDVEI

What all share (assay type): biochemical
The target in one assay is T1, HDAC3 (Homo sapiens, UniProt O15379).
T1 construct: purchased Reaction Biology corporation (contract assay)
Briefly: HDAC3 enzyme inhibition assay (single point and 10-dose IC50, Reaction Biology). The note with it: single point, inhibitor 1.0 μM; average of two measurements, ±2%.

Another assay addresses T2, HDAC11 (Homo sapiens, UniProt Q96DB2).
T2 construct: purchased Reaction Biology corporation (contract assay)
T2 sequence (Q96DB2 1-347): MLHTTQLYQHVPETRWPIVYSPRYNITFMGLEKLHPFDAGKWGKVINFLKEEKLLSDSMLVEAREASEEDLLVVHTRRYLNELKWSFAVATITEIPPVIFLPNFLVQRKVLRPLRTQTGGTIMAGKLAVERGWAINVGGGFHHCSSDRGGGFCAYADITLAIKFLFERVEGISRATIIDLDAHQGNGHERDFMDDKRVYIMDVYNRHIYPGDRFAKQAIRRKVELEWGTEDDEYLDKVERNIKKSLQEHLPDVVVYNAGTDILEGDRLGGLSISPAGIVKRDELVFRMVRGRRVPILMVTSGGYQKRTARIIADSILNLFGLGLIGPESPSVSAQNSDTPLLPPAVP
Briefly: HDAC11 enzyme inhibition assay (single point and 10-dose IC50, Reaction Biology). The following applies: single point, inhibitor 1.0 μM; average of two measurements, ±2%.

A further assay deals with T3, HDAC6 (Homo sapiens, UniProt Q9UBN7).
T3 construct: purchased Reaction Biology corporation (contract assay)
T3 sequence (Q9UBN7 1-1215): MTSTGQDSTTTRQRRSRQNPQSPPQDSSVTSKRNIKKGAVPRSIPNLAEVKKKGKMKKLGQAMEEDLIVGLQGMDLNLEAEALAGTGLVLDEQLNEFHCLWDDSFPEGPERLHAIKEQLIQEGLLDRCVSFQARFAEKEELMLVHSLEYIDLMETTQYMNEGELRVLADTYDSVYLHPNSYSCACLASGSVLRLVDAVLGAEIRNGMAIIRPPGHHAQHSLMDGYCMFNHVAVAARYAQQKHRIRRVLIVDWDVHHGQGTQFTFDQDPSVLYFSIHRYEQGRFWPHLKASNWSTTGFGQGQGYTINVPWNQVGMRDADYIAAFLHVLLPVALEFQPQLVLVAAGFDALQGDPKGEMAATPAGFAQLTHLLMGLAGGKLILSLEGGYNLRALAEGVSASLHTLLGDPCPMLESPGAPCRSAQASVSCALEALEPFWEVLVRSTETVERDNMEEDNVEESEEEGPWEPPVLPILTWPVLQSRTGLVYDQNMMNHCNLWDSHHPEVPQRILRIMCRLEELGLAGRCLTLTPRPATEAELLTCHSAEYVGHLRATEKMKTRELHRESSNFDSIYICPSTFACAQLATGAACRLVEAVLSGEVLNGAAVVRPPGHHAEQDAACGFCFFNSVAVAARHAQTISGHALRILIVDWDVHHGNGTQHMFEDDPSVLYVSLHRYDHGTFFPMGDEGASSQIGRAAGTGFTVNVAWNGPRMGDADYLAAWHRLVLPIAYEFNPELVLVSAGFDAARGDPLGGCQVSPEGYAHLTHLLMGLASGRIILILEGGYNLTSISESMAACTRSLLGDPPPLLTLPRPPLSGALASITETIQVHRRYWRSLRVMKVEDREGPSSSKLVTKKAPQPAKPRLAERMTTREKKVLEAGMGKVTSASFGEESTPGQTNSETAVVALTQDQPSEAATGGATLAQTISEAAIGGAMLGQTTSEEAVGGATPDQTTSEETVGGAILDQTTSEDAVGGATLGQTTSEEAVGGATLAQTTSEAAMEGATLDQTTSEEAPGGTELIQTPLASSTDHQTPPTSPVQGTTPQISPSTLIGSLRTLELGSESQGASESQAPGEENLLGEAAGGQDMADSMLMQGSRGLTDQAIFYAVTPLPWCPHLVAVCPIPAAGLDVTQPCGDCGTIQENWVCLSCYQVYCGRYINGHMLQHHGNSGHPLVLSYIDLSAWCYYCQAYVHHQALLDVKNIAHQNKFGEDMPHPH
Briefly: HDAC6 enzyme inhibition assay (single point and 10-dose IC50, Reaction Biology). The note with it: single point, inhibitor 0.01 μM; average of two measurements, ±2%.

SMILES strings stand for the structures.

`O=C(CCCCCN1C(=O)c2cccc3cccc(c23)C1=O)NO` [scriptaid, reference compound]: on HDAC3, the “HDAC3 average enzyme isoform activity (percentage of full enzyme activity)” value stood at 43.8%. For the same compound, the “HDAC11 average enzyme isoform activity (percentage of full enzyme activity)” value at HDAC11 is on record as 78.6%. On HDAC6, the “HDAC6 average enzyme isoform activity (percentage of full enzyme activity)” value is recorded as 39.8%.
